Laboratory results as given in patent US12534451B2, “Small molecule modulators of PanK” (St. Jude Children's Research Hospital, priority 2019, dated 2026).

By UniProt entry, the sequences of proteins in these tests, tags left out. Where a name states a change or a piece, a line headed by the entry shows the natural chain unless it says otherwise.
UniProt Q9H999: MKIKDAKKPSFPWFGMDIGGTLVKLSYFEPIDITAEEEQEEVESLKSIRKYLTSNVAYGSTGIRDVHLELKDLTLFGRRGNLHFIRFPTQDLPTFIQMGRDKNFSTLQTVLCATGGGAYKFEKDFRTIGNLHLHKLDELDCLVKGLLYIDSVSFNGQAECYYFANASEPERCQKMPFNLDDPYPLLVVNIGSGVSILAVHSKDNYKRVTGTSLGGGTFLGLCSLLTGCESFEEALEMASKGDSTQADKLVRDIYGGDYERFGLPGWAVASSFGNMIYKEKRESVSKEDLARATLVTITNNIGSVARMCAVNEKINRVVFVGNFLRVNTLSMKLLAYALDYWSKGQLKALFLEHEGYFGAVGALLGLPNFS

Target: human PANK3 (Homo sapiens (Human), UniProt Q9H999)
Assay: PANK activity assay (radiochemical, D-[1-14C]pantothenate)
Type: biochemical
Settings: 5 nM human PANK3, 2.5 mM ATP, 45 μM pantothenate, 10 min at 37° C.; average ± data range
Procedure: The PanK activity and Surface Plasmon Resonance assays were conducted as explained in the literature.
If the IC^50 was determined to be in the nM range then the assay was repeated in the presence of 0-1 μM or 0-0.1 μM compound to more precisely determine the IC^50. All the experiments were repeated twice in duplicate and the data were an average ±data range.
The experiments mimicking the mixture of ligands present in vivo were performed under different conditions. […] The IC^50 values for the structure-activity study were calculated by fitting the inhibition data to a one-site model of the Michaelis-Menten equation. […] Thus, the data were fit to Morrison's quadratic equation (GraphPad software) that accounts for the impact of enzyme inhibitor binding on the free concentration of inhibitor.

Compound	IC50
C[C@@H]1CN(C(=O)Cc2ccc(N(C)C)cc2)CCN1c1ccc(Cl)nn1 [PZ-4109]	0.0106 ± 0.001 µM
C[C@H]1CN(C(=O)Cc2ccc(N(C)C)cc2)CCN1c1ccc(Cl)nn1 [PZ-4110]	0.0107 ± 0.0006 µM
